One assay addresses T. brucei FPPS (Trypanosoma brucei, UniProt Q57WF1). Description: biochemical.
In a further assay the test system is D. discoideum. As to the kind of experiment: D. discoideum growth inhibition. Format: cell-based. The following applies: Dictyostelium discoideum, read-out: D. discoideum IC50.

By UniProt entry, the sequences of proteins in these tests, tags left out.
UniProt Q57WF1, entry or part of it: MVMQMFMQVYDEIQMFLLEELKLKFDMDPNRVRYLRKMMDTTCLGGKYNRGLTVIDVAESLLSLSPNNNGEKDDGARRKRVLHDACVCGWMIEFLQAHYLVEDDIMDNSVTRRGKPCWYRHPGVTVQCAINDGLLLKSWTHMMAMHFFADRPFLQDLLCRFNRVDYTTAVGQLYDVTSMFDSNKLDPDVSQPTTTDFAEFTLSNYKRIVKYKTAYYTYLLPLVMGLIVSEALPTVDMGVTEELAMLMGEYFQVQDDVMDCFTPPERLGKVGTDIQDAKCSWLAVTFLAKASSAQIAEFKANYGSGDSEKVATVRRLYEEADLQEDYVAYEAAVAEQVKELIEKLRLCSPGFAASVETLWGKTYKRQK

`O=P(O)(O)C(O)(Cc1cccnc1)P(=O)(O)O` [3 (risedronate), risedronate, reference compound]: the IC50 at T. brucei FPPS was 100 nM; in the assay with D. discoideum, 2800 nM.

The IC50 is the midpoint of a concentration-inhibition curve.

The record behind these values is patent US7687482B2, “Bisphosphonate compounds and methods” (The Board of Trustees of the University of Illinois, priority 2006, dated 2010).
